Values quoted from earlier work as cited in publication PMC9412994 (Pharmaceutics, 2022).

Test system: P-gp
Conditions: radiolabeled domperidone; attributed to circulating radiometabolites; cited from earlier work

Question: Which “Change of Kp,brain in P-gp deficient mice” value does the source give for ^3H-domperidone here?
Answer: The value was “not increased”.
